B1: FLAG-tagged wt AKT1 [not stated] / Ser/Thr-protein phosphatase 2A (PP2A)-catalytic subunit beta isoform [human (endogenous in SK-Br3)] (parent)
chain 1: MSDVAIVKEGWLHKRGEYIKTWRPRYFLLKNDGTFIGYKERPQDVDQREAPLNNFSVAQCQLMKTERPRPNTFIIRCLQWTTVIERTFHVETPEEREEWTTAIQTVADGLKKQEEEEMDFRSGSPSDNSGAEEMEVSLAKPKHRVTMNEFEYLKLLGKGTFGKVILVKEKATGRYYAMKILKKEVIVAKDEVAHTLTENRVLQNSRHPFLTALKYSFQTHDRLCFVMEYANGGELFFHLSRERVFSEDRARFYGAEIVSALDYLHSEKNVVYRDLKLENLMLDKDGHIKITDFGLCKEGIKDGATMKTFCGTPEYLAPEVLEDNDYGRAVDWWGLGVVMYEMMCGRLPFYNQDHEKLFELILMEEIRFPRTLGPEAKSLLSGLLKKDPKQRLGGGSEDAKEIMQHRFFAGIVWQHVYEKKLSPPFKPQVTSETDTRYFDEEFTAQMITITPPDQDDSMECVDSERRPHFPQFSYSASGTA
chain 2: MDDKAFTKELDQWVEQLNECKQLNENQVRTLCEKAKEILTKESNVQEVRCPVTVCGDVHGQFHDLMELFRIGGKSPDTNYLFMGDYVDRGYYSVETVTLLVALKVRYPERITILRGNHESRQITQVYGFYDECLRKYGNANVWKYFTDLFDYLPLTALVDGQIFCLHGGLSPSIDTLDHIRALDRLQEVPHEGPMCDLLWSDPDDRGGWGISPRGAGYTFGQDISETFNHANGLTLVSRAHQLVMEGYNWCHDRNVVTIFSAPNYCYRCGNQAAIMELDDTLKYSFLQFDPAPRRGEPHVTRRTPDYFL

Variants of B1 are the subject of this experiment. In words: co-immunoprecipitation (anti-FLAG IP, western blot quantification). The conditions noted are these: with Ser/Thr-protein phosphatase 2A (PP2A)-catalytic subunit beta isoform [human (endogenous in SK-Br3)], SK-Br3 cells, serum-starved 20 min with 10 μM U0126, 10 μg/ml TZ for 20 min, read off a plot. In general terms: In western blotting, separated proteins are transferred to a membrane and probed.

Where [1] appears, read: individual experiment (grey point).
The mark [2] stands for this setting: individual experiment (white point).

For three variants, percent of parent results are on record in paper PMC7547737.

For chain 1 P313A P318A, the percent of parent runs as follows: under setting [1], 58 % of wt; under setting [2], 31 % of wt.
With chain 1 P318A, the percent of parent is 72 % of wt under setting [1] and 44 % of wt under setting [2].
Regarding chain 1 P313A, the percent of parent was 140 % of wt under setting [1] and 46 % of wt under setting [2].
